{"source": "published antibiotic growth screens (doi:10.1038/s41589-023-01349-8)", "note": "The other results are listed elsewhere or left out.", "data": [{"test_system": "A. baumannii ATCC 17978", "assay": "relative growth (fraction of control); higher = less inhibition", "settings": "50 µM", "values": [{"compound": "O=c1c(O)c(-c2ccccc2)oc2cccc(O)c12", "relative growth": 1.07}, {"compound": "C[C@]12CCC3c4ccc(O)cc4CCC3C1CC[C@@H]2O", "note": "(some centres not stated)", "relative growth": 0.945}, {"compound": "Cl.Cl.O=C(O)COCCN1CCN(C(c2ccccc2)c2ccc(Cl)cc2)CC1", "note": "(configuration not stated)", "relative growth": 1.42}, {"compound": "Cc1ccnc(NS(=O)(=O)c2ccc(N)cc2)n1", "relative growth": 1.08}, {"compound": "Cc1cccc(NC(=O)C(C)C)c1", "relative growth": 0.865}, {"compound": "COc1ccc(NC(=O)N2C[C@@H](O)COC[C@@H]3O[C@H](CC(=O)NC4Cc5ccccc5C4)CC[C@H]32)cc1", "relative growth": 0.899}, {"compound": "C[C@H](CO)N1C[C@H](C)[C@H](CN(C)C(=O)Cc2ccccn2)Oc2cc(-c3ccc(C(=O)N(C)C)cc3)ccc2S1(=O)=O", "relative growth": 1.05}, {"compound": "Nc1cc(-c2ccccc2)ccc1O", "relative growth": 1.06}, {"compound": "C/C1=C/CC(C)(C)/C=C/C/C(C)=C/CC1", "note": "[HUMULENE (alpha)]", "relative growth": 1.04}, {"compound": "CCS(=O)(=O)NCC[C@H]1CC[C@@H](NS(=O)(=O)c2ccccc2C)[C@@H](CO)O1", "relative growth": 1}, {"compound": "CC(C)(C)c1ccc(C(=O)CCCN2CCC(OC(c3ccccc3)c3ccccc3)CC2)cc1", "relative growth": 1.01}, {"compound": "C(=N\\C1CCCCCCCCCCC1)/c1ccco1", "relative growth": 0.779}, {"compound": "Cn1cnc(S(=O)(=O)N2C[C@@H](O)COC[C@H]3O[C@@H](CC(=O)NC4Cc5ccccc5C4)CC[C@@H]32)c1", "relative growth": 0.937}, {"compound": "O=c1ccn([C@@H]2O[C@H](CO)[C@@H](O)[C@H]2O)c(=O)[nH]1", "relative growth": 0.899}, {"compound": "Cl.NC12CC3CC(CC(C3)C1)C2", "relative growth": 1.19}, {"compound": "COc1cc2c(cc1OC)[C@@]13ON=C(c4ccc(OCCOC(=O)NCCCCCC(=O)NO)cc4)[C@@H]1CCN3CC2", "relative growth": 0.999}, {"compound": "O=c1c(O)c(-c2ccc(O)cc2)oc2ccccc12", "relative growth": 1.26}, {"compound": "COC(=O)C1=C2CC[C@H](COC(=O)NCCCCCC(=O)NO)NC(=O)N[C@H](Cc3ccccc3)c3cn(nn3)C[C@@H](Cc3ccccc3)NC(=O)c3oc(c(C(=O)OC)c3C(=O)OC)CC[C@H](COC(=O)NCCCCCC(=O)NO)NC(=O)N[C@H](Cc3ccccc3)c3cn(nn3)C[C@@H](Cc3ccccc3)NC(=O)C(=C1C(=O)OC)O2", "relative growth": 1}, {"compound": "CN(C)CC(=O)N[C@@H]1CC[C@H](CCNC(=O)C2CC2)O[C@@H]1CO", "relative growth": 1.06}, {"compound": "CCCCNc1cc(C(=O)O)cc(S(N)(=O)=O)c1Oc1ccccc1", "relative growth": 0.972}, {"compound": "CC(C)(C)[S@](=O)N1Cc2cc(C(=O)N3CCCCC3)nc(-c3cccc(-c4cccc(C#N)c4)c3)c2[C@@H]1CCO", "relative growth": 1.07}, {"compound": "Cc1ccc(S(=O)(=O)N[C@H]2CC[C@H](CC(=O)N3CCC(Cc4ccccc4)CC3)O[C@H]2CO)cc1", "relative growth": 0.714}, {"compound": "C[C@H](Cn1cnc2c(N)ncnc21)OCP(=O)(O)O", "relative growth": 0.919}, {"compound": "O=C(O)CNC(=O)c1ccc(S(=O)(=O)N2CCOCC2)cc1", "relative growth": 1.04}, {"compound": "COc1cccc2c1C(=O)c1c(O)c3c(c(O)c1C2=O)C[C@@](O)(C(=O)CO)C[C@@H]3OC1C[C@H](N)[C@H](O)[C@H](C)O1", "note": "(some centres not stated)", "relative growth": 0.97}, {"compound": "COCC(=O)N(C)C[C@H]1Oc2cc(C#C[C@H](C)O)ccc2S(=O)(=O)N([C@H](C)CO)C[C@@H]1C", "relative growth": 1}, {"compound": "CN(C)/C=N/[C@@H]1N=C(C2CC2)N(C)C(=O)N1", "relative growth": 0.901}, {"compound": "CN(C)C(=O)C[C@H]1C=C[C@@H](NC(=O)C2CCOCC2)[C@H](CO)O1", "relative growth": 0.923}, {"compound": "CCOC(=O)[C@@H](N)Cc1ccccc1", "relative growth": 0.982}, {"compound": "C#Cc1ccc([C@H]2C=C(C(=O)N3CCN(Cc4ccc5c(c4)OCO5)CC3)O[C@@H](OCC)[C@@H]2CCCO)cc1", "relative growth": 0.798}, {"compound": "CCS(=O)(=O)NCC[C@H]1CC[C@H](NC(=O)C2CC2)[C@H](CO)O1", "relative growth": 1.08}, {"compound": "Nc1c2c(=O)[nH]c(=O)cc-2[nH]n1-c1ccccc1", "relative growth": 1.06}, {"compound": "CCOC(=O)c1c(C)oc(N)c1C(N)=O", "relative growth": 1.01}, {"compound": "c1ccc(-c2cc(-c3ccccc3)n(-c3ccccc3)n2)cc1", "relative growth": 1.15}, {"compound": "CN(C)C(=O)C[C@H]1CC[C@H](NC(=O)C2CCOCC2)[C@@H](CO)O1", "relative growth": 1.08}, {"compound": "CCCCCCC#C[Si](O[C@H](c1ccccc1)c1cn(Cc2cccc(Cl)c2)nn1)(C(C)C)C(C)C", "relative growth": 1.05}, {"compound": "CC(=O)OCC(=O)NCCCOc1cccc(CN2CCCCC2)c1.Cl", "relative growth": 0.979}, {"compound": "CCOC(=O)c1c(C)cc(O)c(C=O)c1O", "relative growth": 0.832}, {"compound": "CCC[C@@H]1C[C@@H](C(=O)N[C@@H](C2O[C@H](SC)[C@H](O)[C@@H](O)[C@H]2O)[C@H](C)Cl)N(C)C1.Cl", "note": "(some centres not stated)", "relative growth": 0.489}, {"compound": "NCC[C@H]1CC[C@H](NC(=O)c2ccccc2F)[C@H](CO)O1", "relative growth": 1.21}, {"compound": "CC(C)NC(=O)N[C@H]1C=C[C@H](CC(=O)O)O[C@H]1CO", "relative growth": 1.06}, {"compound": "C[C@@H]1CN([C@H](C)CO)S(=O)(=O)c2ccc(-c3ccc(F)cc3)cc2O[C@H]1CN(C)C(=O)C1CCOCC1", "relative growth": 1.16}]}]}
